The chains behind the UniProt entries cited, without tags or fusion partners. Where a name states a change or a piece, a line headed by the entry shows the natural chain unless it says otherwise.
UniProt P14416, whole entry: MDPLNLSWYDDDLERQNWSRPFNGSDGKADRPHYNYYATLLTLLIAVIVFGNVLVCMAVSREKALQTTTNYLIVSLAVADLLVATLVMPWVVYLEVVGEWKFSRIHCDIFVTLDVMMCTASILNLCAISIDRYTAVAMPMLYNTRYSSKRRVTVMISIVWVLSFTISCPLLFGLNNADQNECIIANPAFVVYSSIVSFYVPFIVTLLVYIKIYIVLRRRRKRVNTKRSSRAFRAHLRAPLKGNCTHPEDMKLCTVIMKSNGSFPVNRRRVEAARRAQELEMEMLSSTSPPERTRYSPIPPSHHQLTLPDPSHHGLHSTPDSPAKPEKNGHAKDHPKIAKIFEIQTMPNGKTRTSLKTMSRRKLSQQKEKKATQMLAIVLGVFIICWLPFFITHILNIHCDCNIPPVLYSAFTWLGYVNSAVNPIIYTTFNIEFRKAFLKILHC
UniProt P35346: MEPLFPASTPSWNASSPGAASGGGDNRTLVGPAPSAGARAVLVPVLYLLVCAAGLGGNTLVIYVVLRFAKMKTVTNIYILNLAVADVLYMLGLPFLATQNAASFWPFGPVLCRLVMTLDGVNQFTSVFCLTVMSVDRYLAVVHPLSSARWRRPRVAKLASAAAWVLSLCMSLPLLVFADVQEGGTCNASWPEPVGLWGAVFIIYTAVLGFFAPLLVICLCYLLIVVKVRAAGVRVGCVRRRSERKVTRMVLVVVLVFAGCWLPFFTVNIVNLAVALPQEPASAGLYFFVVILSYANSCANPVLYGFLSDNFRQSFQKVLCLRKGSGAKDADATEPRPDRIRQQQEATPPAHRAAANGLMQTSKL

In patent US20010053848A1, “Hetero-oligomeric G protein-coupled receptors as novel drug targets” (priority 2000, published 2001):

Molecular target: HA-SSTR5 and D2R (Homo sapiens, UniProt P14416+P35346)

CCc1cc(Cl)c(OC)c(C(=O)NC[C@@H]2CCCN2CC)c1O [eticlopride]
effect on GTPγS-induced reduction of [125I]-LTT-SST-28 binding (G protein coupling): not affected
